# In patent US9126999B2, “Tetrahydropyrazolopyrimidine compounds” (EISAI R&D MANAGEMENT CO., LTD., priority 2012, dated 2015):
# Chains of the proteins cited; added tags and fusions are not shown. Residues count along the entry.
# UniProt P58681, 27-1050 limits assumed: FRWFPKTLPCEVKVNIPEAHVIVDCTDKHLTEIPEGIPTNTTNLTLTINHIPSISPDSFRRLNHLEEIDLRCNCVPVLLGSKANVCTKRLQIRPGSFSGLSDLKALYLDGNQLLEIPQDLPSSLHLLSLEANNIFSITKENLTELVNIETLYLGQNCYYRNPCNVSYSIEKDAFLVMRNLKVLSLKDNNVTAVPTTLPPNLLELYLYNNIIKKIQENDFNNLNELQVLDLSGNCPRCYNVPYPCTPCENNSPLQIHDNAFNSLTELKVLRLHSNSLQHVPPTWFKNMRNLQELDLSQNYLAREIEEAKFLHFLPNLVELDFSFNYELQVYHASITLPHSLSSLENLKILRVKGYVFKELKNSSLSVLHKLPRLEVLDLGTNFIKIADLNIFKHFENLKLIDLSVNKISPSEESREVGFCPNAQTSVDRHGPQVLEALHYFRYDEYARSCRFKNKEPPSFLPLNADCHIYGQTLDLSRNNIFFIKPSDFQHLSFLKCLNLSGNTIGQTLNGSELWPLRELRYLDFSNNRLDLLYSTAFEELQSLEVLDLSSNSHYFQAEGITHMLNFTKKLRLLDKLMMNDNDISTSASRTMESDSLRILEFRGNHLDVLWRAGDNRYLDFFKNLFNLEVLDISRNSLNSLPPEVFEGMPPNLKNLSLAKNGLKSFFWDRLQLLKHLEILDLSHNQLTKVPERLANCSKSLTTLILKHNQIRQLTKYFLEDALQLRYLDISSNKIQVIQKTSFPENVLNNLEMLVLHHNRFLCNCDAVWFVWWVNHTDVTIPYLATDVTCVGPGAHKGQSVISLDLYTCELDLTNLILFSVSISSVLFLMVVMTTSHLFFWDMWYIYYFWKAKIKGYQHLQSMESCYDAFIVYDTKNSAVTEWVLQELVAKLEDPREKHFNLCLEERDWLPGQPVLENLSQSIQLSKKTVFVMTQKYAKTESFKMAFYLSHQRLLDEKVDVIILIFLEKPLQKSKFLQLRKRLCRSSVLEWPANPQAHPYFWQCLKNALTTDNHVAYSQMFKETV
# UniProt Q9NR97, 27-1041 limits assumed: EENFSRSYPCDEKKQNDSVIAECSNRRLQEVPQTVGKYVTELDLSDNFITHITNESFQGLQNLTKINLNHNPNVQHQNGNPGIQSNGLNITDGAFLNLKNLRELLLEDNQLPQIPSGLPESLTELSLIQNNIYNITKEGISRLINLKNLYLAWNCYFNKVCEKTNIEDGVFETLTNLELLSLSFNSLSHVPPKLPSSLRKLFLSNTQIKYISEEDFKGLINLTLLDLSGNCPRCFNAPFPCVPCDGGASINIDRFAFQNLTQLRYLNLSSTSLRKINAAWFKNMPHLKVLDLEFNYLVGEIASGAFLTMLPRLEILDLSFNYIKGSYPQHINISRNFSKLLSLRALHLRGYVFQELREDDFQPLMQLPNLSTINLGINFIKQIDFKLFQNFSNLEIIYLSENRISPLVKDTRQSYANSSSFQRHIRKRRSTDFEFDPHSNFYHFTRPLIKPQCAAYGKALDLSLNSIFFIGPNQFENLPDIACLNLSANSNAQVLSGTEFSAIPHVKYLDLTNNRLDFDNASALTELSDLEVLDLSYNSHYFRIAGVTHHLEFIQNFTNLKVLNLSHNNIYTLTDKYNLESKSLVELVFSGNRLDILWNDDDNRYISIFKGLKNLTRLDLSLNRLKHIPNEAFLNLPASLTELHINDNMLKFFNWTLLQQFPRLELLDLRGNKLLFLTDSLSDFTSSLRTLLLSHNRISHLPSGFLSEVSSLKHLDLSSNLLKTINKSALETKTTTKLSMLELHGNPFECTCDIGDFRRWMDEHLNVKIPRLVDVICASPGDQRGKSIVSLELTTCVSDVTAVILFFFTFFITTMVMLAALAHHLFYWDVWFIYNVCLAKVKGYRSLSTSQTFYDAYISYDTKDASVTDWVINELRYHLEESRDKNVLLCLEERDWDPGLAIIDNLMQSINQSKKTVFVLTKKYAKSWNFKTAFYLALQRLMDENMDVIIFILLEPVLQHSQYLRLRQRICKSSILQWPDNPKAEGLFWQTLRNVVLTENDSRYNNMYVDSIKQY
# Where two headings read alike, the source gives them in different places.
# Tests used:
# [1] = target: T1, Mouse TLR7 (Mus musculus, UniProt P58681); test: Short-term in vivo (STIV) assay: plasma IL-6 after s.c. R848
# Description: Figure Legend: Female BALB/c mice were dosed by oral gavage with Vehicle alone (0.5% aqueous methyl-cellulose) or compound ER-892887 formulated in Vehicle at 100 mg/kg or 300 mg/kg. At 13 or 24 hours following oral dosing, mice were injected subcutaneously with 15 ug R848 to stimulate TLR7. Blood plasma was collected by cardiac puncture, and the IL-6 level at 1.5 hours after TLR7 stimulation was then assessed by standard ELISA procedure. Percent suppression indicated is relative to IL-6 induction following Vehicle control dosing. Statistical significance was determined by Mann-Whitney test.
# To assess compound potency in vivo against mouse TLR7, a short-term in vivo (STIV) assay was utilized. Briefly, mice were orally dosed with compounds and at various time points afterwards were injected subcutaneously with agonist R848 to stimulate TLR7. The plasma IL-6 level following R848 stimulation was then measured by ELISA to assess compound potency and duration-of-action. […] Therefore, the activity of compounds in the STIV assay can be confidently attributed to their modulation of the TLR7 pathway. A single oral dose of ER-892887 at 300 mg/kg suppresses the R848/TLR7/IL-6 pathway in vivo by 80-90% for at least 24 hours (see FIG. 1).
# Six to eight week old female BALB/c mice (Jackson Labs, Bar Harbor, Me.) were dosed by oral gavage in 200 ul volume with antagonist compounds formulated in 0.5% aqueous methyl-cellulose (Sigma, St. Louis, Mo.). At various time points afterwards, mice were injected subcutaneously (s.c.) in 100 ul volume with 15 ug R848 (Resiquimod; GLSynthesis, Worcester, Mass.) to stimulate TLR7. Blood plasma was collected by cardiac puncture, and levels of IL-6 at 1.5 hours after TLR7 stimulation were then assessed by standard ELISA procedure according to the manufacturer's recommended protocol (R&D Systems).
# [2] = target: T1, Mouse TLR7; test: Mouse spleen cell-based assay, R848 stimulus, IL-6 ELISA; conditions: read-out: Mouse Splenocyte IC50, Mouse Splenocyte IL-6 Inhibition (R848 Ligand)
# Description: Spleens were harvested from female BALB/c mice (Jackson Labs, Bar Harbor, Me.) euthanized by CO2. A single cell suspension was obtained by passing spleens through a 40 μm nylon cell strainer. Cells were washed twice with 50 ml PBS (Mediatech, Inc., Manassas, Va.) and red blood cells were lysed in 5 ml RBC Lysis buffer (eBioscience, Inc., San Diego, Calif.) for 5 minutes at room temperature. Cells were washed twice more in PBS and finally resuspended in supplemented RPMI-1640 at 2.5×10^6 cells/ml. Cells were plated at 100 μl/well (2.5×10^5 cells/well) in 96-well tissue culture treated plates (Falcon). Serial dilutions of compounds solubilized in 100% DMSO were added in triplicate to cells to yield a final concentration of 0.1% DMSO. Cells were incubated with compound for 30 minutes at 37° C., 5% CO2 before adding 100 μl/well of 740 nM R848 (Resiquimod; GLSynthesis, Worcester, Mass.) in complete media for a final concentration of 370 nM R848. Cells were incubated for 20 hours at 37° C., 5% CO2. Culture supernatants were collected, and levels of IL-6 were assessed by standard ELISA procedure according to the manufacturer's recommended protocol (BD Biosciences, Inc., San Diego, Calif.).
# [3] = test system: Human TLR7/8; test: Human PBMC cell-based assay, RNA-Ig (SL4-Ig) stimulus, cytokine ELISA; conditions: read-out: Human PBMC IC50, Human PBMC IL-6 Inhibition (SL4-Ig Ligand)
# [4] = target: Human TLR8 (Homo sapiens, UniProt Q9NR97); test: HEK-293 NF-kappaB luciferase reporter assay, CL097 stimulus; assay type: cell-based; conditions: read-out: HEK/TLR8 IC50; human TLR8 in the HEK-293 assay format
# Source text: In vitro pharmacology: HEK-293 cells (ATCC) were engineered to stably express a NF-kappaB transcription factor inducible E-selectin (ELAM-1) luciferase reporter derived from the plasmid pGL3 (Promega) containing base pairs −2241 bp to −254 bp from the promoter of the human E-selectin gene (Accession No. NM_000450). These cells were then subsequently engineered to stably and individually express human TLR4, TLR7 or TLR9 full-length ORF cDNAs. Human TLR4 cDNA (Accession No. NM_138554) was cloned into pcDNA 3.0 expression vector (Invitrogen). TLR4 transfected cells were also engineered to express human MD-2 co-receptor [MD-2 cDNA (Accession No. NM_015364) was cloned into the pEF-BOS vector] and were supplemented with 10 nM soluble CD14 (R&D Systems) in the media to optimize LPS responsiveness. Human TLR9 cDNA (Accession No. NM_017442) was cloned into the pBluescript II KS vector (Agilent). Human TLR7 cDNA (Accession No. NM_016562) was obtained from OriGene. HEK-293 cells stably expressing human TLR8 (Accession No. NM_138636) or mouse TLR7 (Accession No. NM_133211) were purchased from InvivoGen and were then stably transfected with pNiFty2(NF-kappaB)-luciferase reporter plasmid (InvivoGen). Each cell type was plated in Dulbecco's modified Eagle's medium (DMEM) containing 10% fetal bovine serum (FBS) at a density of 2.22×10^5 cells/ml into a 384-well plate and incubated for 2 days at 37° C., 5% CO2. Varying concentrations of antagonist compounds were then added. Cells were then incubated for another 30 minutes before adding the appropriate TLR agonist as follows (final concentrations indicated): lipopolysaccharide (LPS; Sigma) at 10 ng/ml for TLR4, CL097 (InvivoGen) at 3 ug/ml for human TLR7 and TLR8 and mouse TLR7, and CpG-2006-2A [sequence: […] (SEQ ID NO: 1) with phosphorothioate backbone, synthesized by Sigma-Aldrich] at 0.6 uM for TLR9.
# [5] = time point 3 hr, dose 100 mg/kg oral
# [6] = time point 6 hr, dose 33 mg/kg oral
# [7] = time point 6 hr, dose 100 mg/kg oral
# [8] = time point 19 hr, dose 100 mg/kg oral
Structure (SMILES),IC50 [4] [nM],IC50 [3] [nM],"% Suppression vs. Vehicle [1, 5] [%]","% Suppression vs. Vehicle [1, 6] [%]","% Suppression vs. Vehicle [1, 7] [%]",IC50 [2] [nM],other results
COc1ccc([C@@H]2C[C@H](C(F)(F)F)n3nc(-c4ccc(C(=O)N[C@@H]5CCNC5)cc4)cc3N2)cc1OC,–,–,–,–,–,–,"% Suppression vs. Vehicle ([1]; time point 6 hr, dose 33 mg/kg oral, tested form: HCl): 0%; % Suppression vs. Vehicle ([1]; time point 13 hr, dose 33 mg/kg oral, tested form: HCl): 0%; % Suppression vs. Vehicle ([1]; time point 13 hr, dose 100 mg/kg oral, tested form: HCl): 28%; % Suppression vs. Vehicle ([1]; time point 13 hr, dose 300 mg/kg oral, tested form: HCl): 0%; % Suppression vs. Vehicle ([1]; time point 24 hr, dose 100 mg/kg oral, tested form: HCl): 0%; % Suppression vs. Vehicle ([1]; time point 24 hr, dose 300 mg/kg oral, tested form: HCl): 27%; IC50 ([2]; tested form: HCl): 297 nM; IC50 ([3]; tested form: HCl): 72 nM"
COc1ccc([C@@H]2C[C@H](C(F)(F)F)n3nc(-c4ccc(C#N)cc4)cc3N2)cc1OC,1490,9850,–,–,–,–,–
COc1ccc([C@@H]2C[C@H](C(F)(F)F)n3nc(-c4ccc(C(N)=O)c(Cl)c4)cc3N2)cc1OC,1470,1710,64,68,84,1750,"% Suppression vs. Vehicle ([1]; time point 13 hr, dose 33 mg/kg oral): 18%; % Suppression vs. Vehicle ([1]; time point 13 hr, dose 100 mg/kg oral): 6%"
CNC(=O)c1ccc(-c2cc3n(n2)C(C(F)(F)F)CC(c2ccc(OC)c(OC)c2)N3)cn1 (stereo not drawn),–,–,–,–,–,630,–
COc1ccc([C@@H]2C[C@H](C(F)(F)F)n3nc(-c4ccc5[nH]c(=O)[nH]c5c4)cc3N2)cc1OC,250,545,–,–,–,–,–
COc1ccc([C@@H]2C[C@H](C(F)(F)F)n3nc(-c4ccc(C(=O)N5CCC(N)C5)cc4)cc3N2)cc1OC (stereo partly drawn),–,–,–,–,–,–,IC50 ([2]; tested form: HCl): 200 nM; IC50 ([3]; tested form: HCl): 27 nM
CNC(=O)c1ccc(-c2cc3n(n2)[C@@H](C(F)(F)F)C[C@@H](c2ccc(OC)c(OC)c2)N3)cc1Cl,150,350,98,48,99,630,"% Suppression vs. Vehicle ([1]; time point 19 hr, dose 33 mg/kg oral): 53%; % Suppression vs. Vehicle [1, 8]: 45%"

# Second part, led by results:
IC50 [4] [nM],IC50 [3] [nM],"% Suppression vs. Vehicle [1, 5] [%]","% Suppression vs. Vehicle [1, 6] [%]","% Suppression vs. Vehicle [1, 7] [%]",IC50 [2] [nM],Structure (SMILES),other results
–,–,–,–,–,718,COc1ccc([C@@H]2C[C@H](C(F)(F)F)n3nc(-c4cc5[nH]ncc5cc4C)cc3N2)cc1OC,–
140,–,–,–,–,–,COc1ccc([C@@H]2C[C@H](C(F)(F)F)n3nc(-c4cccc(NC(C)=O)c4)cc3N2)cc1OC [ER-887734-00],–
–,164,30,23,0,290,COc1ccc([C@@H]2C[C@H](C(F)(F)F)n3nc(-c4ccc(C(=O)NCCCO)cc4)cc3N2)cc1OC,"% Suppression vs. Vehicle [1, 8]: 0%"
